These results are taken from patent publication US10913733B2, “Substituted piperidines thiazolyl acetamides as glycosidase inhibitors and uses thereof” (priority 2015, dated 2021).

Chains of the proteins cited; added tags and fusions are not shown.
UniProt O60502, whole entry: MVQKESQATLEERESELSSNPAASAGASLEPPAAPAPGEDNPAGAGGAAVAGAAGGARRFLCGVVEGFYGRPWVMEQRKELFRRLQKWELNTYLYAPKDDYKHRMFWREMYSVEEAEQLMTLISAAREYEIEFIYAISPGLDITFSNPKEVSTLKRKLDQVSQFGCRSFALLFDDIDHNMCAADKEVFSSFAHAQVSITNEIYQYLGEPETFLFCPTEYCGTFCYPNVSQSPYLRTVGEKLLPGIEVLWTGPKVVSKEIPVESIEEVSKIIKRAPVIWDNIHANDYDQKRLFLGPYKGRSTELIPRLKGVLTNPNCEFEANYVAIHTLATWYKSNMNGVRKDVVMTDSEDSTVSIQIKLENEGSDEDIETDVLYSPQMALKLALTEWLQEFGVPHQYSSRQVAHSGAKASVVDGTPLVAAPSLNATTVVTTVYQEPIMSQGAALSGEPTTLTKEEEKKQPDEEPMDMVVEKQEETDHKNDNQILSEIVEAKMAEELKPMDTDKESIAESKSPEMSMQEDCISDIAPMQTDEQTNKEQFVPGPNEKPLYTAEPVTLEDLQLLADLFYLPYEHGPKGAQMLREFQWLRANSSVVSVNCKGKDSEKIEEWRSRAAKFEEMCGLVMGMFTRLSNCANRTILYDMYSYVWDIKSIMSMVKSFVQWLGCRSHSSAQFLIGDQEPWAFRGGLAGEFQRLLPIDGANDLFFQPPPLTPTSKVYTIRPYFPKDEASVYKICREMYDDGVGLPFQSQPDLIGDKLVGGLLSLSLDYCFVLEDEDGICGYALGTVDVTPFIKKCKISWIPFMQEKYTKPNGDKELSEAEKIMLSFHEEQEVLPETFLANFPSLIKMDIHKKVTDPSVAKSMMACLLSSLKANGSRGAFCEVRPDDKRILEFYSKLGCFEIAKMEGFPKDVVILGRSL

This test concerns the target human O-GlcNAcase (Homo sapiens (Human), UniProt O60502). Kind of test: Assay for determination of KI values for inhibition of O-GlcNAcase activity. In kind it is biochemical. The note with it: read-out: hOGA Ki; purified human O-GlcNAcase 0.7 nM; substrate 2 mM 4-Methylumbelliferyl N-acetyl-β-D-glucosaminide; pH 7.0; room temperature; Cheng-Prusoff.

For orientation: Ki means a dissociation constant, usually derived from enzyme kinetics or from competition with a known ligand. For `CC(=O)Nc1ncc(CN2CCC(=Cc3ccc(O)cc3)CC2)s1`, the Ki came to 860 pM.
